Experiment: Water solubility limit by diluting 15 mM stock solutions until optically clear
Format: physicochemical
Details: diluting 15 mM stock until optically clear

Poly(L-lysine-HBr)40-b-poly(rac-leucine)20 [K40(rac-L)20]
Water Solubility Limit: 3000 µM
